Laboratory results: patent US20070099244A1

By UniProt entry, the sequences of proteins in these tests, tags left out. Residues count along the entry.
UniProt P17301, 169-366: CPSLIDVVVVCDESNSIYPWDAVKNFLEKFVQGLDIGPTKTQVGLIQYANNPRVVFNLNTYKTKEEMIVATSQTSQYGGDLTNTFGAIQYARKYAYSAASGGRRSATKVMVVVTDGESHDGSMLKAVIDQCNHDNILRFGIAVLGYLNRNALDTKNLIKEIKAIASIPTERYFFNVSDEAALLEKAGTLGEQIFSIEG
UniProt P56199, 167-364: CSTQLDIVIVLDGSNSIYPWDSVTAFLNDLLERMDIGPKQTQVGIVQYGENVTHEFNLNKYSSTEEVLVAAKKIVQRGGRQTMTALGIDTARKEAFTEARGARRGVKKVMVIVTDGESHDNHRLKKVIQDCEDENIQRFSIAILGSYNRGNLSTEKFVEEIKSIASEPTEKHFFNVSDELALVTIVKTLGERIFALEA

Tests used:
[1] = target: recombinant I domain of integrin α2 subunit (UniProt P17301); assay: competition ELISA; peptide competes with coated human mature type III collagen for 5 µM α2I
[2] = target: recombinant I domain of integrin α1 subunit (UniProt P56199); assay: competition ELISA; peptide competes with coated human mature type III collagen for 0.5 µM α1I

synthetic collagen peptide containing GLOGER flanked by three GPO triplets on either side
IC50 [1]: 12 µM
IC50 [2]: 2.2 µM
